Data on 57 compounds can be found in paper PMC5681660, “Reduced hepatitis B and D viral entry using clinically applied drugs as novel inhibitors of the bile acid transporter NTCP” (Scientific Reports, 2017).

Structures can show the parent of a compound that is named as a salt.

For the first assay, the target named is T1, human NTCP (Homo sapiens, UniProt Q14973).
T1 sequence (Q14973 1-349): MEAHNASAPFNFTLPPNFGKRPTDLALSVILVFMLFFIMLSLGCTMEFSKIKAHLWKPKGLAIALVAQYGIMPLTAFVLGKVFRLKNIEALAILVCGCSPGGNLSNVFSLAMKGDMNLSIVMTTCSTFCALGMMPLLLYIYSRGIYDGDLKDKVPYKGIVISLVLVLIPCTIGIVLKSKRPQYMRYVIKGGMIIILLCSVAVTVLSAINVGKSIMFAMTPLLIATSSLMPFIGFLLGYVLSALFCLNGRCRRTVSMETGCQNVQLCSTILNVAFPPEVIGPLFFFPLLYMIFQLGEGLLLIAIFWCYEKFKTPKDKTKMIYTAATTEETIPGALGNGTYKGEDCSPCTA
Description: Screening taurocholate uptake assay (96-well, [14C]taurocholate, 10 µM drug).
Details: not given
For the compound `C[C@]12CC[C@@H](O)C[C@H]1CC[C@@H]1[C@@H]2CC[C@]2(C)C(=O)CC[C@@H]12` [3-alpha-Hydroxy-5-beta-androstan-17-one], the “%NTCP activity” value was 95.0096%.
In the case of `COc1ccc2cc([C@@H](C)C(=O)[O-])ccc2c1.[Na+]` [(R) -Naproxen sodium salt], the “%NTCP activity” value worked out at 96.7204%.
With `CNCC[C@@H](Oc1cccc2ccccc12)c1cccs1.Cl` [(R)-Duloxetine hydrochloride], the “%NTCP activity” value is reported as 92.2049%.

Still in this assay, the particulars now being: 10 min, read-out: %NTCP activity.
In the case of `Nc1nc(=O)n([C@@H]2CS[C@H](CO)O2)cc1F` [(-)-Emtricitabine], the remaining activity at 10 µM is 145%.
For the compound `NCCCC(O)(P(=O)(O)O)P(=O)(O)O` [Alendronate sodium], the remaining activity at 10 µM turned out to be 111%.
Same read-out and setting: the value for `C[C@]12CC[C@@H](O)C[C@@H]1CC[C@@H]1[C@@H]2CC[C@]2(C)C(=O)CC[C@@H]12` [Androsterone] was 85.6%.
For the compound `CCOC(=O)c1cncn1[C@H](C)c1ccccc1` [Etomidate], the remaining activity at 10 µM is 142%.

The next assay has as its target T1, human NTCP. Description: Screening fluorescent competitive Myrcludex B-FITC binding assay (96-well, 10 µM drug).
Details: not given
For the compound `C[C@]12CC[C@@H](O)C[C@H]1CC[C@@H]1[C@@H]2CC[C@]2(C)C(=O)CC[C@@H]12` [3-alpha-Hydroxy-5-beta-androstan-17-one], the “%NTCP binding” value was 81.9346%.
On to `COc1ccc2cc([C@@H](C)C(=O)[O-])ccc2c1.[Na+]` [(R) -Naproxen sodium salt], for which the “%NTCP binding” value was determined as 82.4935%.
On to `CNCC[C@@H](Oc1cccc2ccccc12)c1cccs1.Cl` [(R)-Duloxetine hydrochloride], for which the “%NTCP binding” value came out at 91.6635%.

Staying with this assay, now noted: 0.5 h, read-out: %NTCP binding.
Consider `Nc1nc(=O)n([C@@H]2CS[C@H](CO)O2)cc1F` [(-)-Emtricitabine], for which the remaining activity at 10 µM was 78.2%.
Turning to `NCCCC(O)(P(=O)(O)O)P(=O)(O)O` [Alendronate sodium], the remaining activity at 10 µM stood at 69.5%.
Turning to `C[C@]12CC[C@@H](O)C[C@@H]1CC[C@@H]1[C@@H]2CC[C@]2(C)C(=O)CC[C@@H]12` [Androsterone], the remaining activity at 10 µM amounted to 82%.

Still in this assay, the particulars now being: 0.5 h, read-out: %NTCP binding, screening Myrcludex B-FITC binding, 10 µM drug, Prestwick library.
For `CCN(C(C)=O)c1cccc(-c2ccnc3c(C#N)cnn23)c1` [Zaleplon], the remaining activity at 10 µM stood at 79.9%.

Still in this assay, the particulars now being: screening Myrcludex B-FITC binding, 10 µM drug.
`CCCc1nc2c(C)cc(-c3nc4ccccc4n3C)cc2n1Cc1ccc(-c2ccccc2C(=O)O)cc1` [Telmisartan] displayed a B-score binding assay of 0.104.
Take `COc1cc2nc(N3CCN(C(=O)C4CCCO4)CC3)nc(N)c2cc1OC` (stereo not drawn) [Terazosin hydrochloride]: the B-score binding assay is -0.273.
The same measure, in the same setting: to `CC(C)N1CCN(c2ccc(OCC3COC(Cn4cncn4)(c4ccc(Cl)cc4Cl)O3)cc2)CC1` (stereo not drawn) [Terconazole] belongs -0.315; to `O.O=C1C(O)=C(O)C(=O)C(O)=C1O` [Tetrahydroxy-1,4-quinone hydrate], -0.041.
Compound `c1ccc(C2CN3CCSC3=N2)cc1` (stereo not drawn) [Tetramisole hydrochloride] showed a B-score binding assay of -0.001.
For `Cn1cnc2c1c(=O)[nH]c(=O)n2C` [Theobromine], the B-score binding assay is recorded as 0.508.
As to `CS(=O)(=O)c1ccc([C@@H](O)[C@@H](CO)NC(=O)C(Cl)Cl)cc1` [Thiamphenicol], the B-score binding assay was -0.102.
For `COc1c(O[C@@H]2O[C@H](CO)[C@@H](O)[C@H](O)[C@H]2O)cc2c(c1OC)-c1ccc(SC)c(=O)cc1[C@@H](NC(C)=O)CC2` [Thiocolchicoside], the B-score binding assay is -2.286.
With `CSc1ccc2c(c1)N(CCC1CCCCN1C)c1ccccc1S2` (stereo not drawn) [Thioridazine hydrochloride], the B-score binding assay was -2.64.
In turn, `C=C(NC(=O)C(=C)NC(=O)c1csc(C2=N[C@@H]3c4csc(n4)[C@H]4NC(=O)c5csc(n5)[C@H]([C@](C)(O)[C@@H](C)O)NC(=O)[C@H]5CSC(=N5)/C(=C/C)NC(=O)[C@H]([C@@H](C)O)NC(=O)c5csc(n5)[C@]3(CC2)NC(=O)[C@H](C)NC(=O)C(=C)NC(=O)[C@H](C)NC(=O)[C@H]([C@@H](C)CC)N[C@@H]2C=Cc3c([C@H](C)O)cc(nc3[C@H]2O)C(=O)O[C@@H]4C)n1)C(N)=O` [Thiostrepton] came in with a B-score binding assay of -19.121.
As for `CCCCCCCCCCCCCCCC[N+](C)(C)CCN(Cc1ccc(OC)cc1)c1ncccn1` [Thonzonium bromide], the B-score binding assay was -4.644.
`CC1(C)S[C@@H]2[C@H](NC(=O)[C@H](C(=O)O)c3ccsc3)C(=O)N2[C@H]1C(=O)O` [Ticarcillin sodium]: the B-score binding assay is reported as -3.119.
With `CCS(=O)(=O)CCn1c([N+](=O)[O-])cnc1C` [Tinidazole], the B-score binding assay was -0.04.
`NC[C@H]1O[C@H](O[C@H]2[C@H](O)[C@@H](O[C@H]3O[C@H](CO)[C@@H](O)[C@H](N)[C@H]3O)[C@H](N)C[C@@H]2N)[C@H](N)C[C@@H]1O` [Tobramycin] had a B-score binding assay of -0.14.
In the case of `CCOC(=O)NNc1nncc2ccccc12` [Todralazine hydrochloride], the B-score binding assay was -0.535.
`Cc1ccc(S(=O)(=O)NC(=O)NN2CCCCCC2)cc1` [Tolazamide] showed a B-score binding assay of 1.351.
Turning to `Cc1c(Cl)cccc1Nc1ccccc1C(=O)O` [Tolfenamic Acid, Tolfenamic acid], the B-score binding assay was -4.587.
Still for that read-out and setting: the value for `Cc1cccc(N(C)C(=S)Oc2ccc3ccccc3c2)c1` [Tolnaftate] was -1.018; that for `Cc1cc(-n2c(=O)[nH]c(=O)n(C)c2=O)ccc1Oc1ccc(SC(F)(F)F)cc1` [Toltrazuril] was -4.683; that for `CNCC[C@@H](Oc1ccccc1C)c1ccccc1` [Tomoxetine hydrochloride] was -1.279.
The compound `CN(C)CCOc1ccc(/C(=C(/CCCl)c2ccccc2)c2ccccc2)cc1` [Toremifene] registered a B-score binding assay of -0.396.
For the compound `Cc1cccc(Nc2ccncc2S(=O)(=O)NC(=O)NC(C)C)c1` [Torsemide], the B-score binding assay is reported as 0.549.
As for `CCCCNc1c(C(=O)OCC)c(C)nc2c1cnn2CC.Cl` [Tracazolate hydrochloride], the B-score binding assay is on record as -0.372.
On the same count and under the same terms, to `NC[C@H]1CC[C@H](C(=O)O)CC1` [Tranexamic acid] belongs -2.357.
On to `COc1ccc(/C=C/C(=O)Nc2ccccc2C(=O)O)cc1OC` [Tranilast], for which the B-score binding assay is given as -0.578.
Still for that read-out and setting: the value for `CSc1nc2cc(Cl)c(Oc3cccc(Cl)c3Cl)cc2[nH]1` [Triclabendazole] was -0.027; that for `Oc1cc(Cl)ccc1Oc1ccc(Cl)cc1Cl` [Triclosan] was -1.615; that for `CC[N+](CC)(CC)CCC(O)(c1ccccc1)C1CCCCC1.[Cl-]` (stereo not drawn) [Tridihexethyl chloride] was -1.168.
Compound `CCC(COC(=O)c1cc(OC)c(OC)c(OC)c1)(c1ccccc1)N(C)C` (stereo not drawn) [Trimebutine] came in with a B-score binding assay of -0.102.
In turn, `CC(CN(C)C)CN1c2ccccc2CCc2ccccc21.O=C(O)/C=C\C(=O)O` (stereo not drawn) [Trimipramine maleate salt] displayed a B-score binding assay of -2.482.
As for `CN(C)CCN(Cc1ccccc1)c1ccccn1` [Tripelennamine hydrochloride], the B-score binding assay is 0.048.
On the same count and under the same terms, the value for `Cc1c(C)c2c(c(C)c1O)CCC(C)(C(=O)O)O2` (stereo not drawn) [Trolox] was -1.293; that for `CN1[C@@H]2CC[C@H]1C[C@@H](OC(=O)c1c[nH]c3ccccc13)C2` [Tropisetron HCl] was 2.574; that for `CC(C)C[C@H](NC(=O)[C@@H](O)[C@H](N)Cc1ccccc1)C(=O)O` [Ubenimex] was -0.274.
`C[C@H](CCC(=O)O)[C@H]1CC[C@H]2[C@@H]3[C@@H](O)C[C@@H]4C[C@H](O)CC[C@]4(C)[C@H]3CC[C@]12C` [Urosiol] yielded a B-score binding assay of -0.009.
`CC(C)[C@H](N)C(=O)OCCOCn1cnc2c(=O)[nH]c(N)nc21` [Valacyclovir hydrochloride]: the B-score binding assay is listed as -0.682.
`CCCc1nc(C)c2c(=O)[nH]c(-c3cc(S(=O)(=O)N4CCN(CC)CC4)ccc3OCC)nn12` [Vardenafil] gave a B-score binding assay of -0.167.
For the compound `Clc1ccc(Nc2nnc(Cc3ccncc3)c3ccccc23)cc1` [Vatalanib], the B-score binding assay is listed as -0.252.
As for `O=C(CCCCCCC(=O)Nc1ccccc1)NO` [Vorinostat], the B-score binding assay was 0.124.
Same read-out and setting: the value for `COC(=O)[C@@H]1[C@H]2C[C@H]3c4[nH]c5ccccc5c4CCN3C[C@@H]2CC[C@@H]1O` [Yohimbine hydrochloride] was -0.435; that for `COc1cc(C(=O)NS(=O)(=O)c2ccccc2C)ccc1Cc1cn(C)c2ccc(NC(=O)OC3CCCC3)cc12` [Zafirlukast] was -15.088; that for `CCN(C(C)=O)c1cccc(-c2ccnc3c(C#N)cnn23)c1` [Zaleplon] was -0.722.
The same measure, in the same setting: the value for `CCCOc1ccccc1-c1nc2nn[nH]c2c(=O)[nH]1` [Zaprinast] was -0.971; that for `CN(C)C/C=C(\c1ccc(Br)cc1)c1cccnc1.Cl.Cl.O` [Zimelidine dihydrochloride monohydrate] was -0.674; that for `CN1CCN(C(=O)OC2c3nccnc3C(=O)N2c2ccc(Cl)cn2)CC1` (stereo not drawn) [Zopiclone] was -1.891.
On the same count and under the same terms, the value for `Cl.Cl.OCCN1CCN(CC/C=C2/c3ccccc3Sc3ccc(Cl)cc32)CC1` [Zuclopenthixol dihydrochloride] was -1.746; that for `O=C1[C@H](CC[C@H](O)c2ccc(F)cc2)[C@@H](c2ccc(O)cc2)N1c1ccc(F)cc1` [ezetimibe, reference compound] was -3.653.
Compound `CCCCC1=NC2(CCCC2)C(=O)N1Cc1ccc(-c2ccccc2-c2nnn[nH]2)cc1` [irbesartan, reference compound] displayed a B-score binding assay of 0.33.

The same assay, now with this note: screening Myrcludex B-FITC binding, 10 µM drug, Prestwick library.
Regarding `O.O=C1C(O)=C(O)C(=O)C(O)=C1O` [Tetrahydroxy-1,4-quinone hydrate], the “%NTCP binding” value was 102.531%.
`CC[N+](CC)(CC)CCC(O)(c1ccccc1)C1CCCCC1.[Cl-]` (stereo not drawn) [Tridihexethyl chloride]: the “%NTCP binding” value amounted to 87.4487%.

The assay is the same for the next values; noted with them: screening Myrcludex B-FITC binding, 10 µM drug; B-score.
As for `COc1cc(C(=O)NCc2ccc(OCCN(C)C)cc2)cc(OC)c1OC` [Trimethobenzamide hydrochloride], the B-score binding assay was determined as 2.919.
The compound `CC(C)(C)NCC(O)c1ccccc1Cl` (stereo not drawn) [Tulobuterol] showed a B-score binding assay of 1.917.
